{"source": "PubChem BioAssay AID1285", "about": "(Columbia University Molecular Screening Center, 2008)", "note": "Only a part is listed here, and it is no random draw. Activity calls are given as the source filed them.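 Rule for the calls: active = inhibition above a set limit, derived from the sample mean plus 3 SD (cut at about 45% in these data); inconclusive = one replicate passes the limit while the other fails; inactive = the rest.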", "data": [{"assay": "inhibitors of APP translation via 5'UTR reporter, primary screen, APP 5'UTR luciferase, SH-SY5Y cells (AID 1285)", "conditions": "SH-SY5Y APP 5'UTR-luciferase reporter, luminescence; at 2 µM; hits give high values", "values": [{"smiles": "CN(C)c1ccc(C(=O)NCC2(N3CCCCC3)CCCCC2)cc1", "inhibition": "inactive: 7.5%"}, {"smiles": "CCN1CCC(Nc2cccc(F)c2)CC1", "inhibition": "inactive: 14.3%"}, {"smiles": "CC(C)(C)OC(=O)N1CCC(Nc2ccccc2)CC1", "inhibition": "inactive: -9.5%"}, {"smiles": "CCOc1ncccc1C(=O)NCC1(N2CCOCC2)CCCCC1", "inhibition": "inactive: 5.3%"}, {"smiles": "CCC(CO)(C(=O)OC1CN2CCC1CC2)c1ccccc1", "note": "(stereo not given)", "inhibition": "inactive: -3.6%"}, {"smiles": "COc1cc(OC)cc(C(=O)NCC2(N3CCOCC3)CCCCC2)c1", "inhibition": "inactive: 12.5%"}, {"smiles": "COc1ccc(C(=O)NCC2(N3CCOCC3)CCCCC2)cc1OC", "inhibition": "inactive: 10.3%"}, {"smiles": "O=C(OC1CN2CCC1CC2)C1c2ccccc2C=Cc2ccccc21", "note": "(stereo not given)", "inhibition": "inactive: 2.4%"}, {"smiles": "N/C(=N\\O)c1c(N)no[n+]1[O-]", "inhibition": "inactive: 5.2%"}, {"smiles": "N#Cc1ccc(C(=O)NCC2(N3CCCCC3)CCCCC2)cc1", "inhibition": "inactive: 13.9%"}, {"smiles": "c1ccc(CN2CCC(Nc3ccccc3)CC2)cc1", "inhibition": "inactive: -4.4%"}, {"smiles": "O=C(NCC1(N2CCCCC2)CCCCC1)c1cccc([N+](=O)[O-])c1", "inhibition": "inactive: -4.1%"}, {"smiles": "N#CC1(Nc2ccccc2)CCN(CCc2ccccc2)CC1", "inhibition": "inactive: -0.1%"}, {"smiles": "COc1ccc(NC2CCN(C(=O)OC(C)(C)C)CC2)cc1", "inhibition": "inactive: -8.1%"}, {"smiles": "CN1CCN(CCOC(=O)C(O)(c2ccccc2)c2ccccc2)CC1", "inhibition": "inactive: 20.3%"}, {"smiles": "O=C(NCC1(N2CCOCC2)CCCCC1)c1cc(=O)[nH]c2ccccc12", "inhibition": "inactive: -13.2%"}, {"smiles": "CN(C)c1cccc(C(=O)NCC2(N3CCCCC3)CCCCC2)c1", "inhibition": "inactive: 10.6%"}, {"smiles": "COc1ccc(CN(CCCl)CCCl)cc1Cl", "inhibition": "inactive: -25.7%"}, {"smiles": "CC(C)c1ccc(NC2CCN(C(=O)OC(C)(C)C)CC2)cc1", "inhibition": "inactive: -58.2%"}, {"smiles": "CN1CCC(Nc2cccc(F)c2)CC1", "inhibition": "inactive: -2.6%"}, {"smiles": "COc1ccc(C(=O)NCC2(N3CCCCC3)CCCCC2)c(OC)c1OC", "inhibition": "inactive: 5.3%"}, {"smiles": "CCOC(=O)N1CCC(Nc2ccc(OC)cc2)CC1", "inhibition": "inactive: -3%"}, {"smiles": "O=C(OC1CN2CCC1CC2)C1c2ccccc2Oc2ccccc21", "note": "(stereo not given)", "inhibition": "inactive: 3.2%"}, {"smiles": "O=C(NCC1(N2CCOCC2)CCCCC1)c1cc2ccccc2o1", "inhibition": "inactive: 2.5%"}, {"smiles": "COc1ccc(NC2CCN(CCc3ccccc3)CC2)c(OC)c1", "inhibition": "inactive: 11.1%"}]}]}
